ChEMBL document CHEMBL4311945, “Development of Dual Chitinase Inhibitors as Potential New Treatment for Respiratory System Diseases” (J Med Chem, 2019)

Sequences of proteins named here, by UniProt entry; tags and fusion partners are left off. A change or cut given only in a name is not applied to a line headed by its entry.
UniProt Q13231: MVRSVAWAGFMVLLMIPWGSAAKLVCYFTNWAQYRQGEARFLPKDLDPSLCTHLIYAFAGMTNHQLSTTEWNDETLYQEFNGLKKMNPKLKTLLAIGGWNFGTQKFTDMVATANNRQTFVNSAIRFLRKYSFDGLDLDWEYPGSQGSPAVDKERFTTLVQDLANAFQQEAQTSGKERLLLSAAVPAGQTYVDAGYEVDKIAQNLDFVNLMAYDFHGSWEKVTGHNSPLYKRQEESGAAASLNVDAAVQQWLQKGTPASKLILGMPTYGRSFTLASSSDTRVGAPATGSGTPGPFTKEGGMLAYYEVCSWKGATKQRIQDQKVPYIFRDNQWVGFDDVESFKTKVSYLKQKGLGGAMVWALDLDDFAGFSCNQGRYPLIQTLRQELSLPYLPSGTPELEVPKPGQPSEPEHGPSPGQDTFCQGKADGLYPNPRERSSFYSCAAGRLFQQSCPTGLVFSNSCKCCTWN

Molecular target: Chitotriosidase-1 (Homo sapiens, UniProt Q13231)
Test: Inhibition of full-length C-terminal his-tagged human CHIT1 expressed in CHOK1 cells assessed as reduction in chitinolytic activity using 4-methylumbelliferyl-beta-D-N,N',N\"-triacetylchitotrioside as substrate after 60 mins by fluorometric assay
Format: cell-based

Nc1nnc(N2CCC(N3CCC[C@@H]3Cc3ccc(Cl)cc3)CC2)[nH]1
IC50: 59 nM
